Results as given in patent publication US5318967A, “2,3,3a,4,5,9b-hexahydro-1H-benzo[e]indole derivatives” (priority 1991, dated 1994).

System: rat
Test: Toxicity, lowest lethal dose (LLD), rat
Conditions: sc rat

SMILES: CNC(=O)Oc1ccc2c(c1)[C@]1(C)CCN(C)[C@@H]1N2C [Physostigmin, physostigmin, reference compound]
- LLD (lowest lethal dose): 1 mg/kg
